This is an account of results in patent publication US12606802B2, “Methods and compositions for improving the assembly of adeno-associated viruses (AAVs)” (priority 2019, dated 2026).

Where two headings read alike, the source gives them in different places.

In this series the test system is HEK293 cells. To be noted: 48 h.

Regarding apoptazole, the cell morphology entry by setting is: (300 uM) “clustered together toward the center of the well”; (inhibitor 4 h post transfection) “drastic changes”.
